Results from ChEMBL document CHEMBL4219212, “Synthesis of 3-(3-hydroxyphenyl)pyrrolidine dopamine D3 receptor ligands with extended functionality for probing the secondary binding pocket” (Bioorg Med Chem Lett, 2018).

By UniProt entry, the sequences of proteins in these tests, tags left out.
UniProt P14416, whole entry: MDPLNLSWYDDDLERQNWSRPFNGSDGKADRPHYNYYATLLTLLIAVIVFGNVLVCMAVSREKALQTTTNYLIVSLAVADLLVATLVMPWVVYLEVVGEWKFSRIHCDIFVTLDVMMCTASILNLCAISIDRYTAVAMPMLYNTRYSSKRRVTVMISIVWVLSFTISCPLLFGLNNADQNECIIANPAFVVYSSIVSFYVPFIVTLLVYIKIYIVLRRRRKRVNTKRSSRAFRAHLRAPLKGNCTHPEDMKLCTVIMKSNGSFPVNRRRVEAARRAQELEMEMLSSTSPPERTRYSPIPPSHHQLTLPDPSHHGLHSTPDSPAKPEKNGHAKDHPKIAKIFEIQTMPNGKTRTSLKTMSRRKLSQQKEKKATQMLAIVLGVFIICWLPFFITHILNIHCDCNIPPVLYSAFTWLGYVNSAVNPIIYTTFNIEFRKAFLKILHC

Target: D(2) dopamine receptor (Homo sapiens, UniProt P14416)
Assay: Binding affinity to human dopamine D2 receptor

## CCCN1CCC[C@@H](c2cccc(O)c2)C1 [PRECLAMOL]
  Ki: 137 nM
